Laboratory results published in article PMC2363627 (British Journal of Cancer, 2001).

Assay: Plasma pharmacokinetics of oral paclitaxel 120 mg/m2 combined with 1000 mg oral GF120918 in cancer patients (HPLC, non-compartmental)
Details: mean SD, n = 6; oral 120 mg/m2 + GF120918 1000 mg
Source text: Furthermore, oral administration may enable development of chronic treatment schedules resulting in sustained plasma concentrations above a pharmacological relevant threshold level. […] PATIENTS AND METHODS Patient population Patients with a histologically confirmed cancer refractory to current therapies were eligible for the study. Previous radiotherapy or chemotherapy other than taxoid therapy was allowed, provided that the last treatment was at least four weeks prior to study entry and any resulting toxicities were resolved. […] Patients were not eligible if they suffered from uncontrolled infec- tious disease, neurologic disease, bowel obstruction or sympto- matic brain metastases. Other exclusion criteria were concomitant use of known P-gp inhibitors and chronic use of H2-receptor antagonists or proton pump inhibitors. The study protocol was approved by the Medical Ethics Committee of the Institute and all patients gave written informed consent. […] The oral and i.v. course were randomized. […] Patient evaluation Pretreatment evaluation included a complete medical history and complete physical examination. […] Responses were evaluated according to the WHO criteria (World Health Organization, 1979). […] The time above the threshold concentrations of 0.05 M and 0.1 M (T > 0.05 M, T > 0.1 M) was determined using linear interpola- tion. […]

With `CC(=O)O[C@H]1C(=O)[C@@]2(C)[C@H]([C@H](OC(=O)c3ccccc3)[C@]3(O)C[C@H](OC(=O)[C@H](O)[C@@H](NC(=O)c4ccccc4)c4ccccc4)C(C)=C1C3(C)C)[C@]1(OC(C)=O)CO[C@@H]1C[C@@H]2O` [paclitaxel] the “T > 0.05 M, oral paclitaxel” value was 13.5 9.3 h.
